Source: US20190169140A1, “IDO1 INHIBITOR AND PREPARATION METHOD AND APPLICATION THEREOF” (SHANDONG LUYE PHARMACEUTICAL CO., LTD., priority 2016, published 2019)

The chains behind the UniProt entries cited, without tags or fusion partners.
UniProt P14902, whole entry: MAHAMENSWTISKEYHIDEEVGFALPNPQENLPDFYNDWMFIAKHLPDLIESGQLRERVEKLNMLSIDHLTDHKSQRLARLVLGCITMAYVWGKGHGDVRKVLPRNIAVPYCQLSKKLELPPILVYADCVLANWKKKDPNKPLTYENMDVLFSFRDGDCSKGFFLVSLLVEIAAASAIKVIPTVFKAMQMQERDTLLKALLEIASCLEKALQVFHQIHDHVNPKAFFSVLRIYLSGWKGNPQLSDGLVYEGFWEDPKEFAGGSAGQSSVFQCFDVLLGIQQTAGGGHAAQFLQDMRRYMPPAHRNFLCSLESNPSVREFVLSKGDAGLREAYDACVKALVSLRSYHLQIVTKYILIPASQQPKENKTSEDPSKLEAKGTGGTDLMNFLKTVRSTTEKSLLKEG

Biological target: recombinant human IDO1 enzyme (Homo sapiens, UniProt P14902)
Assay: Test of hIDO1 for enzymatic activity in vitro (NFK Green fluorescence)
Conditions: read-out: Enzyme IC50
Description: 1. Test of hIDO1 for Enzymatic Activity In Vitro
1.1 Purpose of Experiment:
Changes in production of NFK, an IDO1 enzymatic metabolite were detected with NFK Green™ fluorescent molecules. With an IC50 value of a compound as an index, an inhibitory effect of the compound on recombinant human IDO1 enzyme was evaluated.
The compound was diluted with dimethyl sulfoxide (DMSO) to 1 mM, with 10 gradients, each 3-fold dilution, in duplicate. 48 μL of 50 mM phosphate buffer, having pH of 6.5, was transferred by the Bravo automatic liquid processing platform to the compound plate. Then 2 μL of an already diluted compound/DMSO solution was added. After even mixing, 10 μL of the resultant mixture was transferred to the enzymatic reaction plate.
IDO1 enzyme was diluted to 20 nM in a reaction buffer (50 mM phosphate buffer with pH of 6.5, 0.1% of Tween-20, 2% of glycerol, 20 mM ascorbic acid, 20 μg/ml catalase, and 20 μM methylene blue), 20 μL of the diluted IDO1 enzyme was transferred to the enzymatic reaction plate, and incubated at 23° C. for 30 minutes. 10 μL of 400 μM L-type tryptophan substrate was added to start reaction. The incubation lasted at 23° C. for 90 minutes. 10 μL of NFK Green™ fluorescent dye was added. […] After incubation at 37° C. for 4 hours, an Envision multi-functional plate reader was used for reading (Ex 400 nm/Em 510 nm). […]

C=CCNC(=S)NCCOc1nonc1C(=NO)Nc1ccc(F)c(Br)c1
IC50: 3.08 µM
